Binding of CDR-mutated scFvs to a peptide of the spike HR2 region

The measurements come from Li et al. 2023 (doi:10.1038/s41467-023-39022-2) through the FLAb antibody collection.

Target peptide (SARS-CoV-2 spike, HR2 region): PDVDLGDISGINAS

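Phage display of a naive human antibody library on the peptide gave the parent. The variants were designed computationally from a first round of random CDR variants and then made and measured. Several design methods are mixed in this list. AlphaSeq pools MATa yeast showing the antibodies with MATalpha yeast showing the peptide. Pairs that bind mate more often; barcode pairs of the diploids are counted by sequencing. A regression on co-assayed BCL2-family reference pairs converts the normalised counts of each replicate to an apparent Kd. There are six technical replicates.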

Parent scFv Ab-14: VH joined to VL by a (GGGGS)3 linker. Changes lie in the light chain CDRs alone.
VH: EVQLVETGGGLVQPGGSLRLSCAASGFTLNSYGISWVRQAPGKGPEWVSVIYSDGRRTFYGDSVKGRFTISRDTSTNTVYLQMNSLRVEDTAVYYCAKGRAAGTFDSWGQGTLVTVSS
VL: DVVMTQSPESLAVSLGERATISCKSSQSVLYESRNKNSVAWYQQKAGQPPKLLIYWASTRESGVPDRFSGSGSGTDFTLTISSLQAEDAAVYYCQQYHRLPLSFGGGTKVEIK

Sequences are complete VL domains.
This list holds designs with at most six substitutions.
Scale: log10 of Kd in nM, estimated from mating counts; low values are strong binders.
A mean of the replicates is given; it leaves out those without a signal.
A pair that was not seen in that replicate is written "nd"; this usually means weak binding, but a binder can also be missed.
Order: sorted from the lowest average up, undetected variants last.
The authors averaged sequences with at least three values out of six and counted those with two or fewer as poor binders.

With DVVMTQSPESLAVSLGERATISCKLSQSVLYESRNKNNVAWYQQKAGQPPKLLIYDASTRSSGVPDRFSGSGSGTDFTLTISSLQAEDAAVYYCQQYHRLPLSFGGGTKVEIK the result was -0.46, -0.61, -0.54, -0.53, -0.76, -0.51 (mean -0.57).
With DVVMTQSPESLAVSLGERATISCKLEQSVLGESRNKNSVAWYQQKAGQPPKLLIYNASTRESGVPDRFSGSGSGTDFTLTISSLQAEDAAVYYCQQYHRLPLSFGGGTKVEIK the result was -0.06, -0.01, -0.44, -0.34, -0.39, -0.39 (mean -0.27).
With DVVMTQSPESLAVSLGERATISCKSSQSVLYEQRNKNSVAWYQQKAGQPPKLLIYGASTRESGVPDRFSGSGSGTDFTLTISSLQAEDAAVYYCQFYHRLPLEFGGGTKVEIK the result was -0.26, -0.29, -0.26, -0.35, -0.30, 0.07 (mean -0.23).
With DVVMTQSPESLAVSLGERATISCKLSQSVLYESRNQNSVAWYQQKAGQPPKLLIYNASTRLSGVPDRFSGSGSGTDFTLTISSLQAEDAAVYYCQQYHRLPLSFGGGTKVEIK the result was 0.04, -0.21, -0.28, -0.17, -0.18, -0.16 (mean -0.16).
With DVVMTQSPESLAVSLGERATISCKLSQSVMYEERNKNSVAWYQQKAGQPPKLLIYNASTRESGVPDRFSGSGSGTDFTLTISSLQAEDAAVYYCQQYHRLPLSFGGGTKVEIK the result was 0.11, -0.31, -0.23, -0.14, -0.09, -0.14 (mean -0.13).
With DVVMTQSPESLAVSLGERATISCKSSQSILYESRNGNSVAWYQQKAGQPPKLLIYDASTRESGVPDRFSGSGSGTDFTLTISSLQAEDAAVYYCQQYQRLPLSFGGGTKVEIK the result was -0.01, 0.16, -0.45, -0.38, -0.28, 0.34 (mean -0.10).
With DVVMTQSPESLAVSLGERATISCKIQQLVLYESRNKNSVAWYQQKAGQPPKLLIYDASTRFSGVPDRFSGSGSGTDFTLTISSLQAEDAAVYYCQAYHRLPLSFGGGTKVEIK the result was -0.10, -0.01, 0.03, -0.19, -0.29, -0.04 (mean -0.10).
With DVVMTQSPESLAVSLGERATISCKVSQSWLYESRNKNSVAWYQQKAGQPPKLLIYNASTRESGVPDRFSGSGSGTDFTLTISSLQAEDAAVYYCQQYHRLPLSFGGGTKVEIK the result was 0.15, -0.10, -0.12, -0.19, -0.15, -0.07 (mean -0.08).
With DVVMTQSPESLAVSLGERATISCKLSQSVLYESRNKNSVAWYQQKAGQPPKLLIYSASQRLSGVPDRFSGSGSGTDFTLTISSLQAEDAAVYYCQQYHRLPLSFGGGTKVEIK the result was 0.22, 0.01, -0.39, -0.03, 0.34, 0.00 (mean 0.02).
With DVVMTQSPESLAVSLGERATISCKSSQSVDTESRNKNSVAWYQQKAGQPPKLLIYDASTRESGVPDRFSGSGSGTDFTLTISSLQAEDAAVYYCQQYHRLPLSFGGGTKVEIK the result was 0.25, 0.11, 0.17, 0.17, 0.26, 0.20 (mean 0.19).
With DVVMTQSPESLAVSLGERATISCKSSISYLYESRNENSVAWYQQKAGQPPKLLIYEASTRERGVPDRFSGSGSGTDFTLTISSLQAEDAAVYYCQQYHRLPLSFGGGTKVEIK the result was 0.24, 0.69, 0.38, -0.15, 0.62, 0.76 (mean 0.42).
With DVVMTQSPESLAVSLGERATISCKSSQSVLYESTNENSVAWYQQKAGQPPKLLIYDASTRESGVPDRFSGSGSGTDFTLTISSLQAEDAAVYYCQQYHRLPLSFGGGTKVEIK the result was 0.46, 0.09, 0.39, 0.59, 0.52, 0.72 (mean 0.46).
With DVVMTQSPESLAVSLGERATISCKSSQSVLYESENKNSVAWYQQKAGQPPKLLIYQASTRESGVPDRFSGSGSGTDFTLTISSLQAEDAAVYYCQQYHRLPLSFGGGTKVEIK the result was 0.67, 0.26, 0.21, 0.42, 0.34, 1.46 (mean 0.56).
With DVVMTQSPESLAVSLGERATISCKLRQSTLYESRNPNSVAWYQQKAGQPPKLLIYKASTRESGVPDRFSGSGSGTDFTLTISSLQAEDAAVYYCQQYHRLPLSFGGGTKVEIK the result was 1.00, 1.66, 0.50, 1.19, 0.72, 1.08 (mean 1.02).
With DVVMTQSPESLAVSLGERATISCKVSQSTLYESRNKNSVAWYQQKAGQPPKLLIYWASTRESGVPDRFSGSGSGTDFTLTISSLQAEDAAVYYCQQYHRLPLSFGGGTKVEIK the result was 1.63, 1.20, 0.65, 0.62, 1.01, 1.42 (mean 1.09).
With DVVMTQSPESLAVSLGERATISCKTSTSVLYESRNTNSVAWYQQKAGQPPKLLIYWASYRESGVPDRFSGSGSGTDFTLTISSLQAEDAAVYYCQQYARDPLSFGGGTKVEIK the result was 1.17, 1.27, 1.23, nd, 1.29, 1.17 (mean 1.23).
With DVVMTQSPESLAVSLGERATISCKSGQSVLYESTNMNSVAWYQQKAGQPPKLLIYWASTRESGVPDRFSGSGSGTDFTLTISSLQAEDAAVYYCQQYHRLPLSFGGGTKVEIK the result was nd, 1.44, 2.50, 0.84, 2.19, nd (mean 1.74).
With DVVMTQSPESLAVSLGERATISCKWLQSVLLESRNSNSVAWYQQKAGQPPKLLIYNASTRELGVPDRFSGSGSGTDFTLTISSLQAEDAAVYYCQQYHRLPLSFGGGTKVEIK the result was nd, nd, nd, nd, nd, 1.91.
With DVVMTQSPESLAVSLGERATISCKQSQSVLYEEKNKNSVAWYQQKAGQPPKLLIYWASTRESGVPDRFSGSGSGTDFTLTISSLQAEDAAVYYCQQYHRLPLSFGGGTKVEIK the result was nd, 1.22, nd, 2.25, 2.37, 3.22 (mean 2.26).
With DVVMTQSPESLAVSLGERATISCKSSQSVLYESRNRNSVAWYQQKAGQPPKLLIYWASTRESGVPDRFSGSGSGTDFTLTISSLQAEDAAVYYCQQYHRQPLSFGGGTKVEIK the result was 2.74, nd, 2.26, nd, 2.20, nd (mean 2.40).
With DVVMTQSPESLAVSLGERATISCKSSQSVLYESRNKNDVAWYQQKAGQPPKLLIYWASTREFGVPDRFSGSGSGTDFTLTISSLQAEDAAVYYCQQYHRLPLSFGGGTKVEIK the result was nd, nd, nd, nd, nd, nd.
With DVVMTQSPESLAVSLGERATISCKSSQSVLYASRNKNSVAWYQQKAGQPPKLLIYYASTRHSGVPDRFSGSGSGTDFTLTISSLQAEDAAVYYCQQYHRAPLSFGGGTKVEIK the result was nd, nd, nd, nd, nd, nd.
With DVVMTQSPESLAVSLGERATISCKSSQSVLYESANKNSVAWYQQKAGQPPKLLIYWASTREVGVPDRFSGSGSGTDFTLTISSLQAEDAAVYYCQQYHRLPLSFGGGTKVEIK the result was nd, nd, nd, nd, nd, nd.

2 of these entries, quoted again:

VL	log10 Kd, replicates	mean, log10 nM
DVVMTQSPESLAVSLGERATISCKSSQSVLYESENKNSVAWYQQKAGQPPKLLIYQASTRESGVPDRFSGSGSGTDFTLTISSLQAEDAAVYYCQQYHRLPLSFGGGTKVEIK	0.67, 0.26, 0.21, 0.42, 0.34, 1.46	0.56
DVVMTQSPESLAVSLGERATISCKSSQSVLYESTNENSVAWYQQKAGQPPKLLIYDASTRESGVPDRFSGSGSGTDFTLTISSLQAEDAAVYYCQQYHRLPLSFGGGTKVEIK	0.46, 0.09, 0.39, 0.59, 0.52, 0.72	0.46

A sequence measured in both rounds can read differently, since the two assays cover different ranges.
Background: pairings of all light chain designs with three empty control strains gave a value in 4% of cases (median 2.64, 5th percentile 1.59). Values in that range, when seen in few replicates, are hard to tell from nonspecific mating.